Measurements from patent US20250041294A1, “Synergistic compositions for use in the treatment of cancer” (Sartar Therapeutics Oy, priority 2021, published 2025).

Experiments:
Type in all cases: cell-based
[1] = tested on: GIST882, GOT3 and SA4 cell lines; assay: High throughput drug sensitivity and resistance test, average over cell lines (BAY2666605 combination)
[2] = tested on: GOT3 cell line; assay: Drug combination testing with concentration matrices, SynergyFinder 2.0; conditions: combination with anagrelide, seven-concentration matrices
[3] = tested on: GIST882 cell line; assay: as above; conditions: combination with anagrelide, seven-concentration matrices

Structure (SMILES)	synergy in high-throughput screening (in words) [1]	Average ZIP synergy score [2]	Average DSS (aDSS) ([1]; BAY2666605 combination, average of GIST882, SA4 and GOT3, aDSS higher than 3.0 = synergy)	Average ZIP synergy score [3]
CC(C)C[C@H](NC(=O)[C@H](Cc1ccccc1)NC(=O)c1cnccn1)B(O)O [Bortezomib, bortezomib]	synergistic			
CO[C@H]1C[C@@H]2CC[C@@H](C)[C@@](O)(O2)C(=O)C(=O)N2CCCC[C@H]2C(=O)O[C@H]([C@H](C)C[C@@H]2CC[C@@H](OP(C)(C)=O)[C@H](OC)C2)CC(=O)[C@H](C)/C=C(\C)[C@@H](O)[C@@H](OC)C(=O)[C@H](C)C[C@H](C)/C=C/C=C/C=C/1C [Ridaforolimus, ridaforolimus]		1.8	4.0	3.9
